Assay results as given in ChEMBL document CHEMBL1152133, “Carbonic anhydrase activators: activation of the archaeal beta-class (Cab) and gamma-class (Cam) carbonic anhydrases with amino acids and amines” (Bioorg Med Chem Lett, 2008).

Amino acid sequences for entries named in this document (tags omitted). A change or cut given only in a name is not applied to a line headed by its entry.
UniProt P00915: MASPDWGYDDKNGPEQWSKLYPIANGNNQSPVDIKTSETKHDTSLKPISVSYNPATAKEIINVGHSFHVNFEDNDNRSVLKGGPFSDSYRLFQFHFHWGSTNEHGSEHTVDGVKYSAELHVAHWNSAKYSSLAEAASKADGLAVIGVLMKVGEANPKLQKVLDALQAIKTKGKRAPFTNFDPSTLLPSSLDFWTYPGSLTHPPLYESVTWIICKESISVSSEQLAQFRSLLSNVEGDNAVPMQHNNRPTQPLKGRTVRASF
UniProt P07451: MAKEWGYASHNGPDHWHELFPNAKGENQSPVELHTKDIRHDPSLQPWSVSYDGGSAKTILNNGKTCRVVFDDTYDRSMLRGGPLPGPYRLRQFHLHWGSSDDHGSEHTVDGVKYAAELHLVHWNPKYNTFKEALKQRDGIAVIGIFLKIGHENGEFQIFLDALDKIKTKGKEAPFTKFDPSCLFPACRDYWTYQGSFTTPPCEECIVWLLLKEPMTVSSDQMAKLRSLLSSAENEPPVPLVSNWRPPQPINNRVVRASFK

Tests used:
[1] = biological target: Carbonic anhydrase 2 (Homo sapiens) (UniProt P00918); experiment: Activation of human recombinant CA2 by stopped-flow CO2 hydrase assay
[2] = biological target: Carbonic anhydrase 1 (Homo sapiens) (UniProt P00915); experiment: Activation of human recombinant CA1 by stopped-flow CO2 hydrase assay
[3] = tested on: Methanothermobacter thermautotrophicus; experiment: Activation of Methanobacterium thermoautotrophicum beta-class CA by stopped-flow CO2 hydrase assay
[4] = tested on: Methanosarcina thermophila; experiment: Activation of Methanosarcina thermophila Zinc(2)-derived gamma-class CA by stopped-flow CO2 hydrase assay
[5] = biological target: Carbonic anhydrase 3 (Homo sapiens) (UniProt P07451); experiment: Activation of human recombinant CA3 by stopped-flow CO2 hydrase assay
[6] = tested on: Methanosarcina thermophila; experiment: Activation of Methanosarcina thermophila cobalt(2)-derived gamma-class CA by stopped-flow CO2 hydrase assay

Row | Compound | KA [1] [µM] | KA [2] [µM] | KA [3] [µM] | KA [4] [µM] | KA [5] [µM] | KA [6] [µM]
1 | N[C@H](Cc1ccccc1)C(=O)O | 86 | 0.035 | 10.3 | 42 | 15.4 | 24
2 | N[C@@H](Cc1ccccc1)C(=O)O |  |  | 70 | 68 | 34.7 | 70
